## Binding of CDR-mutated scFvs to a peptide of the spike HR2 region

Values reported by Li et al. 2023, doi:10.1038/s41467-023-39022-2 (FLAb copy).

The target is the same throughout: PDVDLGDISGINAS, from the HR2 region of SARS-CoV-2 spike.

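The parent was found by panning a naive human phage display library on the peptide. Designed CDR sequences, proposed from the first random library and measured here. Several design methods are mixed in this list. The assay is AlphaSeq: two haploid yeast populations carry antibody and antigen on their surface. Mating (16 h, 30 °C) was followed by selection of diploids and sequencing of their barcodes. A regression on co-assayed BCL2-family reference pairs converts the normalised counts of each replicate to an apparent Kd. There are six technical replicates.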

Parent scFv Ab-14: VH joined to VL by three GGGGS repeats. Changes lie in the light chain CDRs alone.
VH: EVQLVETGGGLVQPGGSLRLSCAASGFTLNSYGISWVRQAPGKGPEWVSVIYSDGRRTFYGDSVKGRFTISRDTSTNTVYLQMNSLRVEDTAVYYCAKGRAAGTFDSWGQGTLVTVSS
VL: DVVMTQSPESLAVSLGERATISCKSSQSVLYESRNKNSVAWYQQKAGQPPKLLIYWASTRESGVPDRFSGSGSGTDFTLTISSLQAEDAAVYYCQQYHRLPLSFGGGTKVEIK

Each variant is given by its three light chain CDRs, as the data file delimits them; those of the parent are KSSQSVLYESRNKNSVA, WASTRES, QQYHRLPLS. The read-out is the apparent dissociation constant on a log10 scale (nM): the lower, the stronger. The mean shown is taken over the replicates in which the pair was detected. Where no diploid with the target was found in any replicate, the entry reads "not detected": below detection, most likely a poor binder, though not proof of it. The range of this assay differs from that of the first round, and the authors advise against merging the two. Of ten entries with the parent sequence, four were seen in most replicates (averages 0.34 to 2.37), three in one and three in none, so single entries are noisy. In the paper, a design with two or fewer of six values counts as a poor binder. As a blank, each scFv also met three strains without target: over all light chain designs, 4% of these pairings were detected, typically at 2.64 and seldom below 1.59. For each scFv, signals with the empty controls are counted beside the result.

CDR-L1	CDR-L2	CDR-L3	mean log10 Kd (nM)	replicates with signal	signal with controls
KFEQLDGYEQRNKNSVA	NASQRED	QQYHRLPLS	0.04	6 of 6	0 of 18
MVSQLMWWGMHAKNSIA	EAQTRLN	QQYDRLPLF	2.38	1 of 6	0 of 18
NVHALMNHSSDFQQSIA	DEECRDA	QQYERLPLS	not detected	0 of 6	0 of 18
KSSQSHLYESRNKNSVA	WASTREP	QQYFRLPLS	0.18	4 of 6	0 of 18
HMSMLTLQGMRHMNSVA	QMTTRVN	QQYDRLPLT	1.00	6 of 6	2 of 18
KIHMGWEMGSRWNDNIA	EANLRFS	QQYNRLPLF	1.29	6 of 6	0 of 18
KASPSMEYESRNKNSVA	HASLRLE	QQYHRLPLS	0.02	6 of 6	1 of 18
SLYEMSYELSGKTHSVA	DNSTRGD	QQYFRLPLE	0.98	6 of 6	1 of 18
KLSYSVGGESRNKNSVA	DAGTRES	QQYHRLPLS	0.18	6 of 6	1 of 18
KVSFSVMLESRNKNAVA	EASQRSS	QQYHRLPLS	-0.07	6 of 6	0 of 18
LSSISYLYESMNKNSVA	EASTRES	QQYHRLPLS	0.83	6 of 6	0 of 18
TISQITSLFSQTINNVA	EVSTREA	QQYDRLPLA	0.55	6 of 6	0 of 18
KISQMIRVGSTHSNSIA	EEATRSK	QQYHRLPLA	1.09	4 of 6	0 of 18
KLQQSWMMQERNKNSVA	HASMRLS	QQYHRLPLS	0.82	6 of 6	0 of 18
KLSQSVLYESRNKNNVA	NASTREW	QQYHRLPLS	-0.19	6 of 6	2 of 18
KYSISYLEGSRNKNSVA	EASTRES	QQYHRLPLS	0.49	6 of 6	1 of 18
HISQSVGMTSFNKQSVA	ENSTREN	QQYDRLPLS	2.75	2 of 6	2 of 18
KSSQSQEYESRNKNSVA	HASTRED	QQYHRLPLS	0.00	6 of 6	0 of 18
KLQQSELYESRNKNSVA	SASTRCS	QQYHRLPLS	-0.20	6 of 6	2 of 18
KVSQSHLYESRNKNSVA	WASERES	QQYHRLPLG	1.16	2 of 6	0 of 18
KISMTTEMELKNRNSVA	ELVTRLN	QQYNRLPLS	0.80	6 of 6	1 of 18
KIYELGKGSIKTNNNIA	QTDIRML	QSYNRLPLS	1.51	6 of 6	3 of 18
KSMQSVLDESRNCNSVA	AASTRES	QQYHRLPLS	0.73	6 of 6	1 of 18
KLKQSELYESRNKNSVA	NASTRMS	QQYHRLPLS	-0.30	6 of 6	2 of 18
KSSQSVLEESRNLNSIA	WASTRES	DQLHRLPLH	1.10	3 of 6	0 of 18
KQSQAFLQESRNKNSVA	DANTRES	QQYHRLPLS	0.29	6 of 6	0 of 18
KFSQSWLLESRNKNSVA	EASTRQS	QQYHRLPLS	-0.25	6 of 6	2 of 18
KSSQSVLMEERNKNSVA	EASTRSS	QQYHRLPLS	0.66	6 of 6	0 of 18

The remaining entries, values ahead:

mean log10 Kd (nM)	replicates with signal	signal with controls	CDR-L1	CDR-L2	CDR-L3
2.65	4 of 6	1 of 18	ALALTLHQNESNQSNIA	QVQEREV	QQYYRLPLG
0.78	6 of 6	0 of 18	KSSQSCLNESLNKNSVA	NASTRLS	QQYHRLPLS
0.24	6 of 6	0 of 18	KSSISYLESSRNKNSVA	EASTRES	QQYHRLPLS
4.59	1 of 6	0 of 18	KLDQKMNQFGQNGNNIA	HGEEFRI	QQYHSLPLS
0.25	6 of 6	2 of 18	KLRMSTLYESRNKNSVA	HASTRES	QQYHRLPLS
1.70	6 of 6	1 of 18	HIDHEWNHGANRDNNIA	EAQTVAA	QDYFRLPII
1.22	6 of 6	0 of 18	TIGQTLMQGIRNRSNVA	EVSQRLN	QQYDRLPLV
1.00	6 of 6	2 of 18	MVSQLMVWGMRAKNSIA	EAQTRLN	QQYDRLPLF
0.52	6 of 6	1 of 18	LISGVIDYGSRNYNSVA	QTSTRES	QQYDRLPLS
not detected	0 of 6	0 of 18	TISQSWFIESRNKNNVA	EMTTREN	QDYDRLPLS
1.86	5 of 6	1 of 18	KWSQSLCYESRNKNSVA	WGSTRES	QQYHRLPLS
1.36	3 of 6	0 of 18	KSSQSVLYESINKNSVA	WASTRES	QQYHRLPLS
not detected	0 of 6	0 of 18	KLREVQHVESKKKNNVA	DNSTRES	QDYYRLPLS
1.23	6 of 6	2 of 18	KLRQSGNYESRNKNSVA	NASTRES	QIYHRLPLS
-0.02	6 of 6	1 of 18	KLSGSELGESRNKNSVA	SADTRLE	QQYHRLPLS
-0.09	6 of 6	0 of 18	KLPQSVLYESRNKNSVA	SASTRLS	QQYHRLPLS
not detected	0 of 6	1 of 18	KQSQLVLYESRNKNSVA	KASTRES	QQIHRMPLS
-0.30	6 of 6	0 of 18	KLPQSMLYESRNKNSVA	EASQRES	QQYHRLPLS
0.76	6 of 6	0 of 18	RIAEQYFEYMHNINNVA	EAECKQY	QQYAHLPLL
1.20	6 of 6	1 of 18	KLRQSTHIESFNKNNVA	EMTNRES	QSYDRLPLS
0.17	6 of 6	0 of 18	KLDMNELHQSQNKNCVA	DSAQKCV	QQYSRLPLS
0.18	6 of 6	0 of 18	KFFGGIPEQERDDYSIA	KGTLRET	QQYQRLPLS
1.56	6 of 6	0 of 18	ALALTLHQVDSQQNNIA	QGMERES	QQYNRLPLG
1.40	6 of 6	3 of 18	KLQQSMLYESRNKNSVA	NASLRES	QCYHRLPLS
0.46	6 of 6	0 of 18	KLSMITGHMSTQKNNVA	EMVTREE	QQYNRLPLA
0.05	6 of 6	1 of 18	KLSFSCLYESANKNSVA	NASTRYS	QQYHRLPLS
0.84	6 of 6	0 of 18	KLVNFMNRGTHHTSNIA	DAQERLD	QQYYRLPLA
-0.34	6 of 6	0 of 18	KVSQSVLYESRNKNSVA	EASTREM	QQYHRLPLS

Again, the first 4 entries without any signal:

| CDR-L1 | CDR-L2 | CDR-L3 | mean log10 Kd (nM) | replicates with signal | signal with controls |
|---|---|---|---|---|---|
| NVHALMNHSSDFQQSIA | DEECRDA | QQYERLPLS | not detected | 0 of 6 | 0 of 18 |
| TISQSWFIESRNKNNVA | EMTTREN | QDYDRLPLS | not detected | 0 of 6 | 0 of 18 |
| KLREVQHVESKKKNNVA | DNSTRES | QDYYRLPLS | not detected | 0 of 6 | 0 of 18 |
| KQSQLVLYESRNKNSVA | KASTRES | QQIHRMPLS | not detected | 0 of 6 | 1 of 18 |